The text below walks through data of BindingDB's records for patent US20250213705 (Bright Peak Therapeutics, 2025).

Protein sequences, listed by entry. Tags and fused reporters are not part of them.
UniProt Q04609, whole entry: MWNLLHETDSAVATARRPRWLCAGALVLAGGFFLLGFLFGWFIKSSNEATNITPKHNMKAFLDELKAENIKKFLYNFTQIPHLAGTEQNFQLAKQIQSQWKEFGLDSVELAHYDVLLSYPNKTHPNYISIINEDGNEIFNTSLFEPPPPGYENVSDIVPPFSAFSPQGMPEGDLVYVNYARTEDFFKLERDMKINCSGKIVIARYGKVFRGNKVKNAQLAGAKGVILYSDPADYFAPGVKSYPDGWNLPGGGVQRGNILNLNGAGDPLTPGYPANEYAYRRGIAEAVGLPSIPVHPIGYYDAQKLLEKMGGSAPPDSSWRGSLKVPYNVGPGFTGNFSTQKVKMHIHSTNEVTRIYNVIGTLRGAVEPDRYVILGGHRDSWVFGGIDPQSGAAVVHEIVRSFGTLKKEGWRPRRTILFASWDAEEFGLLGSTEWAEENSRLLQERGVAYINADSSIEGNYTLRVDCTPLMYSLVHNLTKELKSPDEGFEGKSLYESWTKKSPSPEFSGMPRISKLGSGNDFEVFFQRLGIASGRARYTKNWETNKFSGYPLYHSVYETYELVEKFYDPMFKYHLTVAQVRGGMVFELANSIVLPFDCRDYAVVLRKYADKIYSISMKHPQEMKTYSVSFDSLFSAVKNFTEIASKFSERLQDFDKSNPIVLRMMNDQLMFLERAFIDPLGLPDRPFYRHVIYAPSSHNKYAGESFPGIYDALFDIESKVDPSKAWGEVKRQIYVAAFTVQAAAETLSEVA

For this assay, the target named is Glutamate carboxypeptidase 2 (Homo sapiens, UniProt Q04609). Kind of assay: Inhibition Assay. On the procedure: Prepare a working solution of 100 μM Amplex Red reagent containing 0.25 U/mL HRP, 0.08 U/mL L-glutamate oxidase, 0.5 U/mL 1-glutamate-pyruvate transaminase, 200 μM L-alanine and keep protected from light. […] Final concentration is 5 nM. Transfer 10 μl/well of the inhibitor solution previously prepared in a separate 96 wells/plate. […] Incubate the reactions for 30 min at 37° C., protected from light. Because the assay is continuous (not terminated), fluorescence may be measured at multiple time points to follow the kinetics of the reactions. Measure the fluorescence in a fluorescence microplate reader using excitation in the range of 530-560 nm and emission detection at ˜590 nm. Ec50s were determined with GraphPad Prism. Ki is calculated based on Cheng-Prusoff equation.

`CC(=O)NCCOCCOCCOCCC(=O)N[C@@H](Cc1cccc(C(=O)O)c1)C(=O)NCC(=O)N[C@@H](Cc1ccc2ccccc2c1)C(=O)NCCCC[C@H](NC(=O)N[C@@H](CCC(=O)O)C(=O)O)C(=O)O` [US20250213705, Compound 84] displayed a Ki of 0.037 nM. In turn, `CC(=O)N[C@@H](Cc1ccc(O)cc1)C(=O)N[C@@H](Cc1ccc(O)cc1)C(=O)N[C@@H](CO)C(=O)N[C@@H](CO)C(=O)N[C@@H](CCC(=O)O)C(=O)N[C@@H](CCC(=O)O)C(=O)NCC(=O)N[C@@H](Cc1ccc(C(=O)O)cc1)C(=O)NCC(=O)N[C@@H](Cc1c[nH]c2ccccc12)C(=O)NCCCC[C@H](NC(=O)N[C@@H](CCC(=O)O)C(=O)O)C(=O)O` [US20250213705, Compound 117] came in with an IC50 of 0.293 nM and an inhibition constant (Ki) of 0.002 nM.

A word on the Ki: it is the equilibrium dissociation constant of an inhibitor or competing ligand from its target. Lower therefore signals tighter binding. As usually defined, the IC50 is the concentration that gives 50% inhibition. Read a low IC50 as greater potency in that assay.
